# Assay results: patent EP4840852A1, “DIPHENYLTRIAZINE COMPOUND, PREPARATION METHOD THEREFOR AND USE THEREOF” (dated 2026)
# By UniProt entry, the sequences of proteins in these tests, tags left out.
# UniProt P21731, whole entry: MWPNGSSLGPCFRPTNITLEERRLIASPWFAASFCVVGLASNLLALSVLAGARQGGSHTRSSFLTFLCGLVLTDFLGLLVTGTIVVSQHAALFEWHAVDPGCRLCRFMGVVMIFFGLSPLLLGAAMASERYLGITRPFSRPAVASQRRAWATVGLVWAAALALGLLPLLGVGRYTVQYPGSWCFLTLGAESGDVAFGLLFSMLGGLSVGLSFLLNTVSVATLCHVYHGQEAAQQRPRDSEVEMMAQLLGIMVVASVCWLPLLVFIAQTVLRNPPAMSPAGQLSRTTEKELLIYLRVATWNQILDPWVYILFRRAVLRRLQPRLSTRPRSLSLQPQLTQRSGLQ
# UniProt Q13258, whole entry: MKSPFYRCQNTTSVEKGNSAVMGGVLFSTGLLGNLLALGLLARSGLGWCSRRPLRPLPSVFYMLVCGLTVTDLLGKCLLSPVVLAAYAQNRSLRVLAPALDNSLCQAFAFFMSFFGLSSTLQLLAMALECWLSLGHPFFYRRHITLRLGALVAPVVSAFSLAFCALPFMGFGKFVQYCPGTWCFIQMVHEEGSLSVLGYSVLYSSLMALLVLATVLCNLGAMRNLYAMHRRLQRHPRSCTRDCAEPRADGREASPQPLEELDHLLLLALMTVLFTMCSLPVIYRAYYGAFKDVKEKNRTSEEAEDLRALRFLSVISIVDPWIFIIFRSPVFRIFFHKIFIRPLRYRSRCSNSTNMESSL
# UniProt P43119, whole entry: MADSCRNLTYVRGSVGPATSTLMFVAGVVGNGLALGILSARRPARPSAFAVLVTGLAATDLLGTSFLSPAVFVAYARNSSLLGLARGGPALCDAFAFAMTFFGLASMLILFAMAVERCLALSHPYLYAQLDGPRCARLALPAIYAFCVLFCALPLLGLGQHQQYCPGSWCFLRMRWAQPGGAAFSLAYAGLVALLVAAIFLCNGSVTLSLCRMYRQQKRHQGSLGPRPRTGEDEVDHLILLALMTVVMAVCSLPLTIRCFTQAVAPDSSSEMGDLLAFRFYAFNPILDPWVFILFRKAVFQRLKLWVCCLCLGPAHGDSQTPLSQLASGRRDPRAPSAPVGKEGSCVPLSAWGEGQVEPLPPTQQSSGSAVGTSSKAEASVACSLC
# UniProt P43115, whole entry: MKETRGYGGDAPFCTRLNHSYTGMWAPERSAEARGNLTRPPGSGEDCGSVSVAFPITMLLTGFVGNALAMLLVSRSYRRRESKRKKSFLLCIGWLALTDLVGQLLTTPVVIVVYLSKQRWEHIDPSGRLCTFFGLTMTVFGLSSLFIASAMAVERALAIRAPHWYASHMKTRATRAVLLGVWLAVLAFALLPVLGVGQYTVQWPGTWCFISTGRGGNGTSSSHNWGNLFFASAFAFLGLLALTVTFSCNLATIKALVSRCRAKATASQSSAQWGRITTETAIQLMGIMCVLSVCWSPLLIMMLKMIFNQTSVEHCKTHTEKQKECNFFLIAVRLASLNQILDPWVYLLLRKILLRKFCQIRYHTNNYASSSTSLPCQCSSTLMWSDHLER
# UniProt P43088, whole entry: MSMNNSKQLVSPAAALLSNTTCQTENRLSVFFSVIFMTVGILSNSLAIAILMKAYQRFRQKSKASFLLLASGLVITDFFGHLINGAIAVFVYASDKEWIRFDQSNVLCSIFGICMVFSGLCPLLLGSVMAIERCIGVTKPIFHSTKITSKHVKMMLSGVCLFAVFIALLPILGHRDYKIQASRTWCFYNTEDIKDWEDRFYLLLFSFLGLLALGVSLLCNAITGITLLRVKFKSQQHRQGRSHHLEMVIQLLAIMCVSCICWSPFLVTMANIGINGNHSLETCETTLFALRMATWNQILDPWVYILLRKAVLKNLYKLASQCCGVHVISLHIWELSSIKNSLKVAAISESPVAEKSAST
# UniProt P43116, whole entry: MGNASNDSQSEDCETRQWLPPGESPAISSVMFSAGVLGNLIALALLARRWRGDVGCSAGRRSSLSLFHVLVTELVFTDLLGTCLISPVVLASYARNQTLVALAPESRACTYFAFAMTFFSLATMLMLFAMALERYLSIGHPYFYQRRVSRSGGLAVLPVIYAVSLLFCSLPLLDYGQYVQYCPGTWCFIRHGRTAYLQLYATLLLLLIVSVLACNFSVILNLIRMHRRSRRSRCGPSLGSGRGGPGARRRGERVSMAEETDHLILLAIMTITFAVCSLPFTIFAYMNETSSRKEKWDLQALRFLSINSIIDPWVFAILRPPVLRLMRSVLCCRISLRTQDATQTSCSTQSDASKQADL
# UniProt P34995, whole entry: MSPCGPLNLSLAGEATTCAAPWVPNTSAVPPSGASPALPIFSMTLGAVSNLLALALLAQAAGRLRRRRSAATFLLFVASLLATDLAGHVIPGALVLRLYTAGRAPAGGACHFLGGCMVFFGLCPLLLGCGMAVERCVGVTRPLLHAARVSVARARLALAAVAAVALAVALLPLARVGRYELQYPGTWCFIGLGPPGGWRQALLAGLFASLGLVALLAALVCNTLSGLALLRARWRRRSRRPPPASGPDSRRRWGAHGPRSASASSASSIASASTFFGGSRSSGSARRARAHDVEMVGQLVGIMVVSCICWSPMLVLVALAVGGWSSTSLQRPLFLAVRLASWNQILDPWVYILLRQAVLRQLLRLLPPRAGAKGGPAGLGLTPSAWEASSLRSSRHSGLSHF
# UniProt P35408, whole entry: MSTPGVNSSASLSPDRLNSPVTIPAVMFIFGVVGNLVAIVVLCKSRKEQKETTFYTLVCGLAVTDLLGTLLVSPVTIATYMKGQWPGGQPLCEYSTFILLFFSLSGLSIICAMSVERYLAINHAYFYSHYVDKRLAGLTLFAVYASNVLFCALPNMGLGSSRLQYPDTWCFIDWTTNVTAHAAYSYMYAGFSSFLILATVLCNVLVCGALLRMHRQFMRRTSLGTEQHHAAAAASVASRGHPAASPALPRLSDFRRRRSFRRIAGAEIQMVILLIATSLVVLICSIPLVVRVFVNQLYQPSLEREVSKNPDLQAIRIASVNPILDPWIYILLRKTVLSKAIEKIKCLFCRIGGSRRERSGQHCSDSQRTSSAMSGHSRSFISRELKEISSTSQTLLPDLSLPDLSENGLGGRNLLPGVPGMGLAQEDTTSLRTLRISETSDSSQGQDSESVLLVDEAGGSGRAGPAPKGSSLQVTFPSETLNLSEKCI
# How the values were obtained:
# [1] = test system: rat pulmonary artery rings; assay: High-K+-induced tension of isolated pulmonary artery rings; settings: read-out: half-maximal inhibitory concentration (IC50), high-K+-induced vasoconstriction of rat pulmonary arteries; N=5
# TP = TP (Homo sapiens, UniProt P21731); assay: Functional activity (HTRF cAMP / HTRF IP1) in cell line stably expressing TP receptor; settings: read-out: absolute EC50; agonistic activation on TP target; initial test concentration 10000 nM
# DP = DP (Homo sapiens, UniProt Q13258); assay: Functional activity (HTRF cAMP / HTRF IP1) in cell line stably expressing DP receptor; settings: read-out: absolute EC50; agonistic activation on DP target; initial test concentration 10000 nM
# SD rats = assay: 4-week repeated dose toxicity and toxicokinetic study in rats; settings: for AUC(0-24): after 28 days of repeated dosing at NOAEL 50 mg/kg
# IP = IP (Homo sapiens, UniProt P43119); assay: Functional activity (HTRF cAMP / HTRF IP1) in cell line stably expressing IP receptor; settings: read-out: absolute EC50; agonistic activation on IP target; initial test concentration 10000 nM
# EP3 = EP3 (Homo sapiens, UniProt P43115); assay: Functional activity (HTRF cAMP / HTRF IP1) in cell line stably expressing EP3 receptor; settings: read-out: absolute EC50; agonistic activation on EP3 target; initial test concentration 10000 nM
# FP = FP (Homo sapiens, UniProt P43088); assay: Functional activity (HTRF cAMP / HTRF IP1) in cell line stably expressing FP receptor; settings: read-out: absolute EC50; agonistic activation on FP target; initial test concentration 10000 nM
# [2] = test system: Monocrotaline (MCT)-Induced Pulmonary Arterial Hypertension Rat Model; assay: Monocrotaline (MCT)-induced pulmonary arterial hypertension rat model; settings: for RVSP / RV/(LV+S): 19 days; for maximum reduction of RVSP / maximum reduction of right ventricular hypertrophy index (RV/(LV+S)): compared with model control group; for RV/(LV+S): right ventricular hypertrophy index
# EP2 = EP2 (Homo sapiens, UniProt P43116); assay: Functional activity (HTRF cAMP / HTRF IP1) in cell line stably expressing EP2 receptor; settings: read-out: absolute EC50; agonistic activation on EP2 target; initial test concentration 10000 nM
# [3] = test system: Human pulmonary arterial smooth muscle cells (HPASMCs); assay: PDGF-induced proliferation of pulmonary arterial smooth muscle cells (CellTiter-Glo); settings: read-out: IC50 for inhibiting PDGF-induced proliferation of pulmonary arterial smooth muscle cells; 20 ng/mL hPDGF-BB; CTG assay
# EP1 = EP1 (Homo sapiens, UniProt P34995); assay: Functional activity (HTRF cAMP / HTRF IP1) in cell line stably expressing EP1 receptor; settings: read-out: absolute EC50; agonistic activation on EP1 target; initial test concentration 10000 nM
# TA98 strain = assay: Bacterial reverse mutation assay with 6-well plate, TA98
# EP4 = EP4 (Homo sapiens, UniProt P35408); assay: Functional activity (HTRF cAMP / HTRF IP1) in cell line stably expressing EP4 receptor; settings: read-out: absolute EC50; agonistic activation on EP4 target; initial test concentration 10000 nM
# [4] = 0.15 mg/kg oral gavage twice daily
# [5] = 0.50 mg/kg oral gavage twice daily
# [6] = 1.50 mg/kg oral gavage twice daily
smiles,measurement,setting,value
CC(C)N(CCCCCC(=O)NS(C)(=O)=O)c1nnc(-c2ccccc2)c(-c2ccccc2)n1,IC50,[1],11.2 µM
same,EC50,TP,> 10 µM
same,EC50,DP,> 10 µM
same,animal death,"SD rats; 50, 150, 500 mg/kg once daily for 4 weeks",No animal death was observed
same,toxicity findings,SD rats; dosing at not less than 500 mg/kg,salivation and thyroid enlargement
same,AUC(0-24),SD rats; females,7016 ng·h/mL
same,AUC(0-24),SD rats; males,3784 ng·h/mL
same,No Observed Adverse Effect Level (NOAEL),"SD rats; oral gavage once daily for 4 weeks, rats",50 mg/kg
same,NOAEL in rats relative to pharmacologically effective dose,SD rats; safety margin,100 times
same,EC50,IP,0.00048 µM
same,EC50,EP3,> 10 µM
same,EC50,FP,> 10 µM
same,RVSP,[2]; [4],55.01±2.54 mmHg
same,Body Weight,"[2]; 0.15 mg/kg oral gavage twice daily, D1",300.1 ± 11.7 g
same,Body Weight,"[2]; 0.15 mg/kg oral gavage twice daily, D5",333.2 ± 7.6 g
same,Body Weight,"[2]; 0.15 mg/kg oral gavage twice daily, D8",354.5±10.0* * g
same,Body Weight,"[2]; 0.15 mg/kg oral gavage twice daily, D12",369.1 ± 12.3 g
same,Body Weight,"[2]; 0.15 mg/kg oral gavage twice daily, D15",381.7 ± 16.0 g
same,Body Weight,"[2]; 0.15 mg/kg oral gavage twice daily, D19",406.7±19.0* * g
same,Body Weight,"[2]; 0.15 mg/kg oral gavage twice daily, D20",412.6 ± 18.8 g
same,maximum reduction of RVSP,[2]; 0.15 mg/kg,approximately 15%
same,maximum reduction of right ventricular hypertrophy index (RV/(LV+S)),[2]; 0.15 mg/kg,17%
same,RVSP,[2]; [5],42.99±1.61 mmHg
same,Body Weight,"[2]; 0.5 mg/kg oral gavage twice daily, D1",297.6 ± 13.5 g
same,Body Weight,"[2]; 0.5 mg/kg oral gavage twice daily, D5",327.6 ± 15.4 g
same,Body Weight,"[2]; 0.5 mg/kg oral gavage twice daily, D8",343.0 ± 15.2 g
same,Body Weight,"[2]; 0.5 mg/kg oral gavage twice daily, D12",363.4 ± 18.1 g
same,Body Weight,"[2]; 0.5 mg/kg oral gavage twice daily, D15",375.2 ± 16.8 g
same,Body Weight,"[2]; 0.5 mg/kg oral gavage twice daily, D19",396.2 ± 20.9 g
same,Body Weight,"[2]; 0.5 mg/kg oral gavage twice daily, D20",401.3 ± 24.0 g
same,maximum reduction of RVSP,[2]; 0.5 mg/kg,33%
same,maximum reduction of right ventricular hypertrophy index (RV/(LV+S)),[2]; 0.5 mg/kg,27%
same,RVSP,[2]; [6],36.96±2.21 mmHg
same,Body Weight,"[2]; 1.5 mg/kg oral gavage twice daily, D1",296.9 ± 17.5 g
same,Body Weight,"[2]; 1.5 mg/kg oral gavage twice daily, D5",330.4 ± 17.3 g
same,Body Weight,"[2]; 1.5 mg/kg oral gavage twice daily, D8",347.4 ± 17.5 g
same,Body Weight,"[2]; 1.5 mg/kg oral gavage twice daily, D12",362.5 ± 24.5 g
same,Body Weight,"[2]; 1.5 mg/kg oral gavage twice daily, D15",371.2 ± 27.1 g
same,Body Weight,"[2]; 1.5 mg/kg oral gavage twice daily, D19",391.8 ± 30.9 g
same,Body Weight,"[2]; 1.5 mg/kg oral gavage twice daily, D20",399.3 ± 30.8 g
same,maximum reduction of RVSP,[2]; 1.5 mg/kg,43%
same,maximum reduction of right ventricular hypertrophy index (RV/(LV+S)),[2]; 1.5 mg/kg,29%
same,effect on lung tissue lesions,"[2]; HE staining, Compound A 0.15, 0.5, 1.5 mg/kg, Selexipag 1 mg/kg, twice daily 19 days",a certain improving effect
same,RV/(LV+S),[2]; [4],38.45±8.01 %
same,RV/(LV+S),[2]; [5],33.29±9.38 %
same,RV/(LV+S),[2]; [6],32.57±5.39 %
same,EC50,EP2,> 10 µM
same,IC50,[3],9.65 µM
same,EC50,EP1,> 10 µM
same,Background lawn,"TA98 strain; TA98+S9, 8 µg/well",T0
same,Reverse mutation colony Mean,"TA98 strain; TA98+S9, 8 µg/well",10.0
same,Reverse mutation colony Number per well,"TA98 strain; TA98+S9, 8 µg/well",11 and 9
same,Background lawn,"TA98 strain; TA98+S9, 16 µg/well",T0
same,Reverse mutation colony Mean,"TA98 strain; TA98+S9, 16 µg/well",7.5
same,Reverse mutation colony Number per well,"TA98 strain; TA98+S9, 16 µg/well",8 and 7
same,Background lawn,"TA98 strain; TA98+S9, 31 µg/well",T0
same,Reverse mutation colony Mean,"TA98 strain; TA98+S9, 31 µg/well",8.5
same,Reverse mutation colony Number per well,"TA98 strain; TA98+S9, 31 µg/well",9 and 8
same,Background lawn,"TA98 strain; TA98+S9, 63 µg/well",T0
same,Reverse mutation colony Mean,"TA98 strain; TA98+S9, 63 µg/well",8.0
same,Reverse mutation colony Number per well,"TA98 strain; TA98+S9, 63 µg/well",7 and 9
same,Background lawn,"TA98 strain; TA98+S9, 125 µg/well",T0
same,Reverse mutation colony Mean,"TA98 strain; TA98+S9, 125 µg/well",11.5
same,Reverse mutation colony Number per well,"TA98 strain; TA98+S9, 125 µg/well",12 and 11
same,Background lawn,"TA98 strain; TA98+S9, 250 µg/well",T0
same,Reverse mutation colony Mean,"TA98 strain; TA98+S9, 250 µg/well",8.0
same,Reverse mutation colony Number per well,"TA98 strain; TA98+S9, 250 µg/well",9 and 7
same,Background lawn,"TA98 strain; TA98+S9, 500 µg/well",T0
same,Reverse mutation colony Mean,"TA98 strain; TA98+S9, 500 µg/well",8.5
same,Reverse mutation colony Number per well,"TA98 strain; TA98+S9, 500 µg/well",10 and 7
same,Background lawn,"TA98 strain; TA98+S9, 1000 µg/well",T0
same,Reverse mutation colony Mean,"TA98 strain; TA98+S9, 1000 µg/well",6.0
same,Reverse mutation colony Number per well,"TA98 strain; TA98+S9, 1000 µg/well",7 and 5
same,Background lawn,"TA98 strain; TA98-S9, 8 µg/well",T0
same,Reverse mutation colony Mean,"TA98 strain; TA98-S9, 8 µg/well",5.0
same,Reverse mutation colony Number per well,"TA98 strain; TA98-S9, 8 µg/well",6 and 4
same,Background lawn,"TA98 strain; TA98-S9, 16 µg/well",T0
same,Reverse mutation colony Mean,"TA98 strain; TA98-S9, 16 µg/well",5.0
same,Reverse mutation colony Number per well,"TA98 strain; TA98-S9, 16 µg/well",5
same,Background lawn,"TA98 strain; TA98-S9, 31 µg/well",T0
same,Reverse mutation colony Mean,"TA98 strain; TA98-S9, 31 µg/well",8.5
same,Reverse mutation colony Number per well,"TA98 strain; TA98-S9, 31 µg/well",8 and 9
same,Background lawn,"TA98 strain; TA98-S9, 63 µg/well",T0
same,Reverse mutation colony Mean,"TA98 strain; TA98-S9, 63 µg/well",5.5
same,Reverse mutation colony Number per well,"TA98 strain; TA98-S9, 63 µg/well",4 and 7
same,Background lawn,"TA98 strain; TA98-S9, 125 µg/well",T0
same,Reverse mutation colony Mean,"TA98 strain; TA98-S9, 125 µg/well",6.5
same,Reverse mutation colony Number per well,"TA98 strain; TA98-S9, 125 µg/well",8 and 5
same,Background lawn,"TA98 strain; TA98-S9, 250 µg/well",T0
same,Reverse mutation colony Mean,"TA98 strain; TA98-S9, 250 µg/well",6.5
same,Reverse mutation colony Number per well,"TA98 strain; TA98-S9, 250 µg/well",7 and 6
same,Background lawn,"TA98 strain; TA98-S9, 500 µg/well",T0
same,Reverse mutation colony Mean,"TA98 strain; TA98-S9, 500 µg/well",5.5
same,Reverse mutation colony Number per well,"TA98 strain; TA98-S9, 500 µg/well",5 and 6
same,Background lawn,"TA98 strain; TA98-S9, 1000 µg/well",T0
same,Reverse mutation colony Mean,"TA98 strain; TA98-S9, 1000 µg/well",5.5
same,Reverse mutation colony Number per well,"TA98 strain; TA98-S9, 1000 µg/well",5 and 6
same,final concentration at which a reduction in background lawn was observed,"TA98 strain; TA98 strain, ±S9",no abnormal background lawn was observed
same,final concentration at which non-interfering precipitate was observed,"TA98 strain; TA98 strain, ±S9",1000 µg per well
same,genotoxicity test result,"TA98 strain; TA98 strain, ±S9, colonies did not reach twice negative control",negative
same,EC50,EP4,> 10 µM

# Where “and” joins values, the source holds several entries; their conditions need not be identical. Identical values can stand only once. Marks after values point to notes of the source that are not given here.
